# Organism: Canis familiaris
smiles,measurement,value
COc1ccc(CC(C)NCC(O)c2ccc(O)c(NC=O)c2)cc1 (stereo unspecified) [FORMOTEROL],ED50,0.1 µg

# Source: ChEMBL document CHEMBL1240530, “Inhalation by design: novel ultra-long-acting β(2)-adrenoreceptor agonists for inhaled once-daily treatment of asthma and chronic obstructive pulmonary disease that utilize a sulfonamide agonist headgroup” (J Med Chem, 2010)
